# Tested on: HepG2 human hepatoma cell line
# Settings: 48 h, 100 micrograms/mL
compound,measurement,value
"CC(=O)NC[C@H]1CN(c2ccc(N3CCOCC3)c(F)c2)C(=O)O1 [Linezolid, reference compound]",mortality,20%
